Consider five substances from publication PMC11167723.

Sequences of proteins named here, by UniProt entry; tags and fusion partners are left off. Residues count along the entry.
UniProt O14744, whole entry R49D: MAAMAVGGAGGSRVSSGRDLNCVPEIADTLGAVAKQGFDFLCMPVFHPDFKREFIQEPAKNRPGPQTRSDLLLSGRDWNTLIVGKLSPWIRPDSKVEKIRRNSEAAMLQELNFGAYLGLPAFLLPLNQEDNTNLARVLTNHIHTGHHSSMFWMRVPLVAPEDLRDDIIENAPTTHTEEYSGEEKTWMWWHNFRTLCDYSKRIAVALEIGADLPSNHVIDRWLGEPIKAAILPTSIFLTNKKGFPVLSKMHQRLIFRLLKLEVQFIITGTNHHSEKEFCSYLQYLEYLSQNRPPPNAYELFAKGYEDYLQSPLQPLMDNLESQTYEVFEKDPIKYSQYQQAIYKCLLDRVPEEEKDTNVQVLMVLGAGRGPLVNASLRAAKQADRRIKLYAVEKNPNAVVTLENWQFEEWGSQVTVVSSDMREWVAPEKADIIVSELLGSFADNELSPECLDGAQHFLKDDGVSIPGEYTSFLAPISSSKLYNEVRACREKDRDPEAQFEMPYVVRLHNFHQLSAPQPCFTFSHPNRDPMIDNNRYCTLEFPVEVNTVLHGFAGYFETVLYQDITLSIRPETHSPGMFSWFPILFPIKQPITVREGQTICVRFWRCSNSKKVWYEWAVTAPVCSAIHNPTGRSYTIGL
UniProt O14744, 2-637: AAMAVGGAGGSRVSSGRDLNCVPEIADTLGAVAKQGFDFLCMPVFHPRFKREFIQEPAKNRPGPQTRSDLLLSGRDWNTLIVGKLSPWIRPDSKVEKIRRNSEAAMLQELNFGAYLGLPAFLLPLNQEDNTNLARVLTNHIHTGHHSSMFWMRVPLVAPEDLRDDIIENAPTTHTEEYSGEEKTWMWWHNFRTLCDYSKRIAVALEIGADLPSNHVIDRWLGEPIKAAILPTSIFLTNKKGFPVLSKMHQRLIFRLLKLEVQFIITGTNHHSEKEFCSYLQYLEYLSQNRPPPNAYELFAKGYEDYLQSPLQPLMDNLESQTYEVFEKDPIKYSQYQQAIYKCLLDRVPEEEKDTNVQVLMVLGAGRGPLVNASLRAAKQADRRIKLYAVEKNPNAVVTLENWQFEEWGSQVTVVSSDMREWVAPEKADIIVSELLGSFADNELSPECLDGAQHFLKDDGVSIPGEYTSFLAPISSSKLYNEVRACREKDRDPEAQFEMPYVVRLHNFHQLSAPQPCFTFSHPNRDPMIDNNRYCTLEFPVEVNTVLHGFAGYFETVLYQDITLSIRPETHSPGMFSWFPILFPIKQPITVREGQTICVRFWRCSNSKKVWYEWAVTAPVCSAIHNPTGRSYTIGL
UniProt O14744, whole entry R49G: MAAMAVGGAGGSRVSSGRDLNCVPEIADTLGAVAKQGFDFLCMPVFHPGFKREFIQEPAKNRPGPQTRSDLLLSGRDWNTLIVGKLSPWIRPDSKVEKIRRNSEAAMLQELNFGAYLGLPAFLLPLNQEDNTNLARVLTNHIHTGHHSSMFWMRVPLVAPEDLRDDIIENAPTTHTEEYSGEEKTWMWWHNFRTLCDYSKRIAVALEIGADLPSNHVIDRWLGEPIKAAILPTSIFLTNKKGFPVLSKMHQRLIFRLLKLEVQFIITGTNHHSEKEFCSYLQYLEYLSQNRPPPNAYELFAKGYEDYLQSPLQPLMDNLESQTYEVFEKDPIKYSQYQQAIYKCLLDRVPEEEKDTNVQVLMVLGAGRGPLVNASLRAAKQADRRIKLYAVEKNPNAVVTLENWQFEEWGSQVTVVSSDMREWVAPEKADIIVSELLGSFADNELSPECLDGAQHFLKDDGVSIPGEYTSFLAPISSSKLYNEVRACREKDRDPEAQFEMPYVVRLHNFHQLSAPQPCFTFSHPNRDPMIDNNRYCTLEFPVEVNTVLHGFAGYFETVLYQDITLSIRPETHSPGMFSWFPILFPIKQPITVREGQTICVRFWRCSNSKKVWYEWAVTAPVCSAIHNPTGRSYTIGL
UniProt O14744, whole entry R49A: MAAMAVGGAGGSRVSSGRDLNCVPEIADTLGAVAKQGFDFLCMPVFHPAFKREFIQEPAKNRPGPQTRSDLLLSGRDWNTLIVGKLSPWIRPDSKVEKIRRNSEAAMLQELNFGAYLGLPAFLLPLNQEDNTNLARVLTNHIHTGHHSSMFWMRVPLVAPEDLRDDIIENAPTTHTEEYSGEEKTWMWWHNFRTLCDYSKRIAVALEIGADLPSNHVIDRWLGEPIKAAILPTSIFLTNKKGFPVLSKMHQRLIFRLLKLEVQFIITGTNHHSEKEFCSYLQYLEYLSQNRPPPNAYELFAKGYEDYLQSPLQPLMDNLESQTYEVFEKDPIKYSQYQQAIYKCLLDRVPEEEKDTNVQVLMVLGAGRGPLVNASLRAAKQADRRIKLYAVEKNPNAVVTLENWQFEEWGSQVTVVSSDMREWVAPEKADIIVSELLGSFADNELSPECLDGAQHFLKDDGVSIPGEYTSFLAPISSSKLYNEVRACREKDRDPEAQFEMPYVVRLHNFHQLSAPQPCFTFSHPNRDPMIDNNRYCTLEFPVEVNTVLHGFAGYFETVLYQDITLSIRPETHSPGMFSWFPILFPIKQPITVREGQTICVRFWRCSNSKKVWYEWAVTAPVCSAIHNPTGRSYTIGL

What all share (assay): split reporter
The target of assay [1] is Myc-VN-PRMT5 R49D BiFC fusion (UniProt O14744).
The target in assay [2] is Myc-VN-PRMT5 (wild type) BiFC fusion (UniProt O14744).
The target of assay [3] is Myc-VN-PRMT5 R49G BiFC fusion (UniProt O14744).
For assay [4], the target named is Myc-VN-PRMT5 R49A BiFC fusion (UniProt O14744).

“HA-VC-MEP50 (wild type) BiFC fusion (from UniProt Q9BQA1 2-342) (natural protein)”: the decrease of interaction (BiFC efficiency) against wild type in assay [1], in assay [3] and in assay [4] was above 70% in each case. The % inhibition of BiFC efficiency by compound 8 at 0.25 uM in assay [2] was determined as 41%. The same substance had a % inhibition of BiFC efficiency by compounds 12, 4, 3 and 10 at 10 uM in assay [2] of 24 to 35%.

As to “HA-VC-MEP50 ΔS50-W54 deletion mutant BiFC fusion (from UniProt Q9BQA1 2-342) (natural protein)”, the decrease of interaction (BiFC efficiency) against wild type in assay [2] came out at 50%.

Regarding “HA-VC-MEP50 D99G BiFC fusion (from UniProt Q9BQA1 2-342) (natural protein)”, the decrease of interaction (BiFC efficiency) against wild type in assay [2] is above 70%.

In turn, “HA-VC-MEP50 D99R BiFC fusion (from UniProt Q9BQA1 2-342) (natural protein)” yielded a decrease of interaction (BiFC efficiency) against wild type in assay [2] above 70%.

In the case of “HA-VC-MEP50 D99A BiFC fusion (from UniProt Q9BQA1 2-342) (natural protein)”, in assay [2], the decrease of interaction (BiFC efficiency) against wild type was above 70%.
